IC50 data for two substances are collected here from US20020103111A1, “Inhibitors of MAdCAM-1-mediated interactions and methods of use therefor” (Millennium Pharmaceuticals, Inc., priority 1996, published 2002).

Sequences of proteins named here, by UniProt entry; tags and fusion partners are left off. Residues count along the entry.
UniProt P13612, 34-1032: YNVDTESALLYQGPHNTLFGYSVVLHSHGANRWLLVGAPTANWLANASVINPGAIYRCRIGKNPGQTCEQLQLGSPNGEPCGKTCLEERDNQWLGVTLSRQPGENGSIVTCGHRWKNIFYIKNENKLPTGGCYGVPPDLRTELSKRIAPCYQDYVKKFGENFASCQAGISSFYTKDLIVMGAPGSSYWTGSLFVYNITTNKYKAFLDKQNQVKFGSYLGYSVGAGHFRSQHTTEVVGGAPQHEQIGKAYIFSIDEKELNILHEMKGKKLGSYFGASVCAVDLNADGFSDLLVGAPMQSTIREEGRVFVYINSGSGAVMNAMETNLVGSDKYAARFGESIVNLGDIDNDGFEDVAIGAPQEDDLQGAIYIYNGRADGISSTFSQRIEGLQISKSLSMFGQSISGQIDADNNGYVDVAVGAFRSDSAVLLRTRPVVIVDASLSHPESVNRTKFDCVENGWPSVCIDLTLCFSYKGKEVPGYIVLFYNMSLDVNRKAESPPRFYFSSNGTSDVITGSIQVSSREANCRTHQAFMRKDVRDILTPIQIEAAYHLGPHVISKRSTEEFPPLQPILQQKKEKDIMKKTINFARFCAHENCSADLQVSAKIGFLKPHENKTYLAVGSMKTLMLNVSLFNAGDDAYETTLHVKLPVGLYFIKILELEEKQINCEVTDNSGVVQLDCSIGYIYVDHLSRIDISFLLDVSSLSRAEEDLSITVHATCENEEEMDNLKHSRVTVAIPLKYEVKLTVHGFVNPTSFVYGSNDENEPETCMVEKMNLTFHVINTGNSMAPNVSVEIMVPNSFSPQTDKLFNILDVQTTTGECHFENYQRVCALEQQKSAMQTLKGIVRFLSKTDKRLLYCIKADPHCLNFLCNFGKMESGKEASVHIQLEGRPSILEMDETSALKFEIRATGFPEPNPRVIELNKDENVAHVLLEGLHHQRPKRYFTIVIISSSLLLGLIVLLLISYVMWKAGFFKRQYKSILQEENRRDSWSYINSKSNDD
UniProt P26010, 20-798: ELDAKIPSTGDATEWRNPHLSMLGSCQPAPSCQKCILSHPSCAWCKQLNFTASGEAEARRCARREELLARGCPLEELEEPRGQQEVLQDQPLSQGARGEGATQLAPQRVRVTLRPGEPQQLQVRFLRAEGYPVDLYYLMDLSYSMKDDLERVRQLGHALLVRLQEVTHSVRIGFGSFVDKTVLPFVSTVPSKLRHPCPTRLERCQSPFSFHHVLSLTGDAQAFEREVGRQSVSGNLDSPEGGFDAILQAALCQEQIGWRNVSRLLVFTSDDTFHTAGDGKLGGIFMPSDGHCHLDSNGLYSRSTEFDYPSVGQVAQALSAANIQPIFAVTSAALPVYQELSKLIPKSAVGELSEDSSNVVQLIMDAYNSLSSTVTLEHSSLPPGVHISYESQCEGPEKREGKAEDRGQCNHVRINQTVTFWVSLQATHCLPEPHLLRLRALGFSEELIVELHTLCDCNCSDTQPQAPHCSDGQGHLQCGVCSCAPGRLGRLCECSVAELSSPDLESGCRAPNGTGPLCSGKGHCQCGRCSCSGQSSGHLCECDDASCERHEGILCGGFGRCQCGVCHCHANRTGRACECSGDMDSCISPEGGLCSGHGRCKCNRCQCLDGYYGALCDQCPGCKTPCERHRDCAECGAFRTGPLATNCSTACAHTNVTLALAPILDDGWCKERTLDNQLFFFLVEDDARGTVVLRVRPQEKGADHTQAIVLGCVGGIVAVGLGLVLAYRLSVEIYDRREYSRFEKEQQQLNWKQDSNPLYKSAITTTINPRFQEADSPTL

The test has as its target T1, murine MAdCAM-1 (MAdCAM-1/mCk fusion protein); α4β7-bearing HUT 78 cells (Homo sapiens, UniProt P13612+P26010).
T1 construct: host or cells: HUT 78 cells (endogenous α4β7); The MAdCAM-1/mCk partner was made in house in baculovirus-infected Sf9 insect cells, used as neat supernatant and captured by rat anti-mCk antibody
In words: Adhesion of HUT 78 cells to MAdCAM-1/mCk fusion protein bound via capture antibody. The format is cell-based. To be noted: HUT 78 cell adhesion to MAdCAM-1/mCk; average of two determinations. The procedure:
The compounds of the present invention were evaluated for their biological properties.
A soluble fusion protein comprising murine MAdCAM-1 was produced in a baculovirus expression system and used in the adhesion assay. A fusion gene in which sequences encoding the signal peptide and extracellular domain of murine MAdCAM-1 were fused to sequences encoding a constant region of the murine kappa light chain (mCk) was constructed, and cloned into a baculovirus shuttle vector. Fusion protein produced from the resulting construct contained the integrin binding sequences of murine MAdCAM-1 at the amino-terminus, and the mCk sequence at the carboxy-terminus. Recombinant baculovirus encoding the fusion protein was harvested from infected Sf9 insect cells.
Human T-cell lymphoma cells (HUT 78 cells) activated with Mn^+2 were used for the adhesion assay in a 96-well format. HUT 78 cells were labelled by preincubation with ECECF-AM stain (Molecular Probes). […] The adhesion of HUT 78 cells to MAdCAM-1/mCk fusion protein bound to wells via rat anti-mCk capture antibody was assessed in the presence or absence of each compound. […] Percent inhibition and IC50 values were determined. […]
Cell adhesion was measured in the presence or absence of compounds. […]
Additional determinations were conducted as needed, so that each IC50 was determined over a range which encompassed the IC50.

In general, IC50 refers to the point on the concentration scale where inhibition reaches its midpoint. Ac-Lle-Asp-Thr-Ser-Leu [Example 46] had a 50% inhibitory concentration (IC50) of 19 mM. This lies in the millimolar range. As to Ac-Leu-Asp-HyP-Ser-Leu [Example 48], the concentration for half-maximal inhibition (IC50) was 0.106 mM.
